Reference: PubChem BioAssay AID778 (Sanford-Burnham Center for Chemical Genomics, 2007)
The entries are a selection whose mix differs from that of the whole data set. Some of these compounds have results that are not shown, active ones among them. Calls of active or inactive are those of the source.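 The calls were made as follows: active = CYP2C19 inhibition above a set limit at 5 µM in the primary screen (cut at about 50% in these data); inactive = the rest.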

By UniProt entry, the sequences of proteins in these tests, tags left out.
UniProt P33261, whole entry: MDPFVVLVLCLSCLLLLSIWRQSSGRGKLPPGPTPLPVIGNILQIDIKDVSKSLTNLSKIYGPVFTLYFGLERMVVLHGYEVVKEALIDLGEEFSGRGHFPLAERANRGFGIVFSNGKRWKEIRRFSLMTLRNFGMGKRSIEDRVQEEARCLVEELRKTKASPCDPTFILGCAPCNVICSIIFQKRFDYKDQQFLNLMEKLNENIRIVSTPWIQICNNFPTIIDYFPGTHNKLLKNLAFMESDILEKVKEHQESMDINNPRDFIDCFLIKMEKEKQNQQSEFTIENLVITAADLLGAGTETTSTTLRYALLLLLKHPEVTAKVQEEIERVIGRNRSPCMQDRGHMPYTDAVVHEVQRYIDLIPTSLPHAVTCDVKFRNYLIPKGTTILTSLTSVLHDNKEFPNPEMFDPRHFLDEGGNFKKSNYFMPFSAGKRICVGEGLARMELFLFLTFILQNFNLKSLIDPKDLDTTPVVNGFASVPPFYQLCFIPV

biological target: Cytochrome P450 2C19 (Homo sapiens) (UniProt P33261); test: blockers of cytochrome P450 2C19 activity – biochemical, luminescence, ADME assay, primary screen (AID 778); settings: CYP2C19 Supersomes, luciferin-H EGE luminescence, 30 min; at 5 µM; hits give high values;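 also: plate controls were negative control wells for no effect and 2.5 mM tranylcypromine positive control for full effect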

Structure (SMILES) | inhibition
CN(C)c1cccc(C(=O)NCC2(N(C)C)CCCCC2)c1 | inactive: -2.6%
O=C(OC1CN2CCC1CC2)C(CO)(c1ccccc1)c1ccccc1 (stereo not drawn) | inactive: -7%
CC(C)N1C(=O)CC2(CCN(CCOC(=O)C(O)(c3ccccc3)c3ccccc3)CC2)C1=O | inactive: -7.7%
